Target: T1, FKBP51FK1 (Homo sapiens, UniProt Q13451)
T1 sequence (Q13451 42-130 limits assumed): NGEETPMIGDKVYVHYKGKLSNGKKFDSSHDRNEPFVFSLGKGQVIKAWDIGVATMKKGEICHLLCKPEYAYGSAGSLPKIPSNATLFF
Assay: competitive fluorescence polarization assay, FKBP51FK1
Type: binding
Conditions: ± = standard error from three independent measurements [b] or error from two independent measurements [d], read-out: FKBP51FK1 K i
Experimental: Table S1. Ki values were determined by a competitive fluoresc ence polarization assay.
4.1 Binding curves of 13a, c and d […]

Ki [µM]	Structure (SMILES)
17	COc1ccc(CC[C@H]2OC(=O)[C@@H]3CCCCN3C(=O)[C@@H](C3CCCCC3)NC(=O)[C@H](C)NC(=O)COc3cccc2c3)cc1OC [13 j, (2R,5S,12R,15S)-12-cyclohexyl-2-[2-(3,4-dimethoxyphenyl)ethyl]-15-methyl-3,19-dioxa-10,13,16-triazatricyclo[18.3.1.0⁵,¹⁰]tetracosa-1(24),20,22-triene-4,11,14,17-tetrone]
5.1	COc1ccc(CC[C@H]2OC(=O)[C@@H]3CCCCN3C(=O)[C@@H](C3CCCCC3)NC(=O)[C@@H]3CCCN3C(=O)COc3cccc2c3)cc1OC [13 k, (9S,12R,19S,22R)-12-cyclohexyl-22-[2-(3,4-dimethoxyphenyl)ethyl]-2,21-dioxa-5,11,14-triazatetracyclo[21.3.1.0⁵,⁹.0¹⁴,¹⁹]heptacosa-1(26),23(27),24-triene-4,10,13,20-tetrone]

From PMC8252719, “Macrocyclic FKBP51 Ligands Define a Transient Binding Mode with Enhanced Selectivity” (Angewandte Chemie (International Ed. in English), 2021)
